Measurements published in patent publication US20200165308A1.

Target: full-length ectodomain of DCC (UniProt P70211)
Assay: solid-phase binding assay
Conditions: ligand

- Kd: 3.83 nM
Substance: Netrin-1 (NET1) from Mus musculus lacking the C-terminal domain (NP_032770, aa: 24-457) (from UniProt O09118 24-457)
